Earlier results as cited in US20050096323A1, “Diketopiperazine derivatives to inhibit thrombin” (NovoScience Pharma Inc., priority 1999, published 2005).

Target: thrombin (Homo sapiens, UniProt P00734)
Conditions: literature value; cited from earlier work

For `CC1CNc2c(cccc2S(=O)(=O)N[C@@H](CCCNC(=N)N)C(=O)N2CC[C@@H](C)C[C@@H]2C(=O)O)C1` (stereo partly shown) [Argatroban, reference compound], the Ki is listed as 0.19 nM.
